Experimental data: paper PMC3030600, “Characterizing Ligand-Gated Ion Channel Receptors with Genetically Encoded Ca^++ Sensors” (PLoS ONE, 2011)

The chains behind the UniProt entries cited, without tags or fusion partners. Residues count along the entry.
UniProt P17787, 26-502: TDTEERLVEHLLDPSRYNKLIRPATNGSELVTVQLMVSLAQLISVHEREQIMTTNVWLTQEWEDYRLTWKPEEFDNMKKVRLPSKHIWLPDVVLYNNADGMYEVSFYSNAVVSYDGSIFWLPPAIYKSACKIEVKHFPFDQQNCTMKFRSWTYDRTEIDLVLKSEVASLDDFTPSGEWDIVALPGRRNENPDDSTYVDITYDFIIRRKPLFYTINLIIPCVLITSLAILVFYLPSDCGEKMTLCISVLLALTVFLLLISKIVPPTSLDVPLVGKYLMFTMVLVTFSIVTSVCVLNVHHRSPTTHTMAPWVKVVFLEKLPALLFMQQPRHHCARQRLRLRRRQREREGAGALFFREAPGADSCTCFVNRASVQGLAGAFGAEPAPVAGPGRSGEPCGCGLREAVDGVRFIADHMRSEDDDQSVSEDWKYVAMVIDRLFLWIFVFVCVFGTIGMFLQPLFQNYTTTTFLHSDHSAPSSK
UniProt P43681, 29-627: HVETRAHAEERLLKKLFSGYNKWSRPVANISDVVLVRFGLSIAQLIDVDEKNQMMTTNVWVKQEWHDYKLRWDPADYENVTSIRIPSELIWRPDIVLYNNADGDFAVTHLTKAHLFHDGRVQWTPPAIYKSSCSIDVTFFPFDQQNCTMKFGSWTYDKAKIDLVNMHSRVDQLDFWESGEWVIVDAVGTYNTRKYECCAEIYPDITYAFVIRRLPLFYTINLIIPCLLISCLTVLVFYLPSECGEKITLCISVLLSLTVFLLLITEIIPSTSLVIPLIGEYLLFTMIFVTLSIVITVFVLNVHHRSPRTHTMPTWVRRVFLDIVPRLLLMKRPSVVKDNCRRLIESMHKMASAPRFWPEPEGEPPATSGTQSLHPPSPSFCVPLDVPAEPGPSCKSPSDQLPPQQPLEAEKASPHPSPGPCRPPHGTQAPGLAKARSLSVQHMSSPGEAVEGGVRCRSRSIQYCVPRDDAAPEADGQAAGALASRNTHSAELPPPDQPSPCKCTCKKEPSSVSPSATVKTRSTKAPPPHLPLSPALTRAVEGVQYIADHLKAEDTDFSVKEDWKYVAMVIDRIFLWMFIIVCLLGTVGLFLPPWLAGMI
UniProt P23979, 24-489: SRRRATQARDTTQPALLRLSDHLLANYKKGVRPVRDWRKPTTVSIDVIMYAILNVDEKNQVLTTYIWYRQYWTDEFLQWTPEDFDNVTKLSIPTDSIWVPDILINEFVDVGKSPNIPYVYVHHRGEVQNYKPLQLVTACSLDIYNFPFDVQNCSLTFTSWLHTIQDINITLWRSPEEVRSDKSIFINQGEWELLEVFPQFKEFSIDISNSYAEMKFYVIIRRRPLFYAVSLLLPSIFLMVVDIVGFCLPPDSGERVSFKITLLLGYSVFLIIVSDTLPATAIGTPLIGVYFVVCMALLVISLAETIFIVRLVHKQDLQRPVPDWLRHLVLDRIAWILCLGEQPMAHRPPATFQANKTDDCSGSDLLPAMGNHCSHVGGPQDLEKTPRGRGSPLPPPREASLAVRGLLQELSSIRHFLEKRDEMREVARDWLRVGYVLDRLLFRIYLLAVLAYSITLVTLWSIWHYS

What was measured:
[1] = biological target: T1, human α4β2 nicotinic acetylcholine receptors (Homo sapiens, UniProt P17787+P43681); assay: α4β2-nAChR CNiFER FRET Flex assay; format: cell-based
T1 construct: expressed in transfected cells; the CNiFER line also carries TN-XXL

[2] = biological target: mouse 5-HT3A serotonin receptors (Mus musculus, UniProt P23979); assay: 5-HT3A CNiFER FRET Flex assay; format: cell-based; conditions: vs 5-HT
Protocol: Cells were cultured in 10 cm plates with DMEM (Mediatech, Manassas, VA) supplemented with 10% FBS (Gemini Bio-Products, West Sacramento, CA; Atlanta Biologicals, Lawrenceville, GA) and 1% Glutamine (Invitrogen), and incubated at 37°C with 10% CO2. Cells were selected at ∼70% confluency and plated the day before using 100 µl volumes per well into black, transparent flat-bottom, TC treated 96-well plates (Thermo, Waltham, MA; E&K, Greiner Campbell, CA). Plates were removed from the incubator the next day and the media was replaced with 100 µl of artificial cerebral spinal fluid (aCSF) [containing 121 mM NaCl, 2.4 mM Ca^2+, 1.3 mM Mg^2+, 5 mM KCl, 26 mM NaHCO3, 1.2 mM Na2HPO4, 10 mM glucose, 5 mM Hepes Na^+, pH 7.4]. For all assays performed on α7-nAChR CNiFERs 10 µM of the PAM, PNU-120596 (Tocris, Ellisville, MO), was prepared in aCSF. […] Mean peak FRET ratios calculated from replicates were exported and plotted against agonist concentrations using Graphpad Prism 4 (Carlsbad, CA). […]
To measure potencies of competitive antagonists, three concentration-response curves with different antagonist concentrations were compared to a control curve (without antagonist). […] The Schild Ka value for competitive antagonists was calculated from the x-intercept at y = 0, as the –Log (Ka), [38]. […]

Structure (SMILES) | Schild Slope [1] | mode of antagonism (Schild analysis) [1] | mode of antagonism [2]
CO[C@H]1CC=C2CCN3CCC4=C(CC(=O)OC4)[C@]23C1 [DHβE, dihydro-beta-erythroidine] | −0.9±0.1 | acts competitively | 
CN1C2CCCC1CC(NC(=O)c1nn(C)c3ccccc13)C2 (stereo not drawn) [granisetron] |  |  | greater non-competitive component
